From paper PMC9574929, “Development of Hydrogen Sulfide-Releasing Carbonic Anhydrases IX- and XII-Selective Inhibitors with Enhanced Antihyperalgesic Action in a Rat Model of Arthritis” (Journal of Medicinal Chemistry, 2022)

Target: hCA IX (Homo sapiens, UniProt Q16790)
Assay: Stopped-flow CO2 hydrase assay, hCA IX

- Ki: 75.4 nM
Compound: N#Cc1ccc(CNCCc2ccc(S(N)(=O)=O)cc2)cc1 [Compound 8, 4-(2-((4-Cyanobenzyl)amino)ethyl)benzenesulfonamide]
